The target of test [1] is recombinant human CYP11B1 (Homo sapiens, UniProt P15538). Put plainly: CYP11B1 enzyme assay with enzyme enriched microsomes, cortisol measured by LC-MS. Conditions: read-out: hCYP11B1 IC50; microsomes from V79-4 cells; 11-deoxycortisol at Km. Here is the method: (§1) V79-4 cells expressing recombinant andrenodoxin and andrenodoxin reductase with either recombinant human CYP11B2 or CYP11B1 were prepared according to methods previously described (LaSala et al 2009 Anal Bioch 394:56-61). An enzyme enriched microsomal fraction was prepared from cellular lysates and subsequently used as the enzyme source for determining inhibitor IC50s. The substrate Km values were experimentally determined for 11-deoxycorticosterone (CYP11B2 substrate) and 11-deoxycortisol (CYP11B1 substrate). Enzyme assays for inhibitor screening employed CYP11B2 and CYP11B1 enzyme enriched microsomes and were run at the Km of the respective substrates. Products of the enzyme reactions, aldosterone for CYP11B2 or cortisol for CYP11B1, were measured by LC-MS. Assays were run under conditions of less than 20% substrate turnover. Inhibitor IC50s were generated by determining the product formation in the absence or presence of inhibitor at various concentrations. In the absence of the test compound, the product formed (Pt) in each data set was defined as 100% activity. In the absence of enzyme, the product formed (Pb) in each data set was defined as 0% activity. The percent activity in the presence of each inhibitor was calculated according to the following equation: % activity=(P−Pb)/(Pt−Pb), where P=the product formed in the presence of the inhibitor. […]

Sequences of proteins named here, by UniProt entry; tags and fusion partners are left off. Residues count along the entry.
UniProt P15538, 25-503 limits assumed: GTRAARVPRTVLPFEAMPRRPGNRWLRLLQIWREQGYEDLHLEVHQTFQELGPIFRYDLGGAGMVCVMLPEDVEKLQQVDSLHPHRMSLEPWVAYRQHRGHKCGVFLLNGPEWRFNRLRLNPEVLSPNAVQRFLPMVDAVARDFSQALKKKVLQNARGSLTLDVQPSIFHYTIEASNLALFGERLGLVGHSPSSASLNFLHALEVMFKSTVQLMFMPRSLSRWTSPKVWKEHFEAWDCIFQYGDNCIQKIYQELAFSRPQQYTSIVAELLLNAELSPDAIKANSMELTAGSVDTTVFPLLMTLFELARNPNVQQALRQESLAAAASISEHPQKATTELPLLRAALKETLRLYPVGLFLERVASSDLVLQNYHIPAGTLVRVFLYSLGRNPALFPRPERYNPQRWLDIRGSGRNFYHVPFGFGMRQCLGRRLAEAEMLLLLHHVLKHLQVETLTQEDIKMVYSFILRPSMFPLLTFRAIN
UniProt P19099, 25-503 limits assumed: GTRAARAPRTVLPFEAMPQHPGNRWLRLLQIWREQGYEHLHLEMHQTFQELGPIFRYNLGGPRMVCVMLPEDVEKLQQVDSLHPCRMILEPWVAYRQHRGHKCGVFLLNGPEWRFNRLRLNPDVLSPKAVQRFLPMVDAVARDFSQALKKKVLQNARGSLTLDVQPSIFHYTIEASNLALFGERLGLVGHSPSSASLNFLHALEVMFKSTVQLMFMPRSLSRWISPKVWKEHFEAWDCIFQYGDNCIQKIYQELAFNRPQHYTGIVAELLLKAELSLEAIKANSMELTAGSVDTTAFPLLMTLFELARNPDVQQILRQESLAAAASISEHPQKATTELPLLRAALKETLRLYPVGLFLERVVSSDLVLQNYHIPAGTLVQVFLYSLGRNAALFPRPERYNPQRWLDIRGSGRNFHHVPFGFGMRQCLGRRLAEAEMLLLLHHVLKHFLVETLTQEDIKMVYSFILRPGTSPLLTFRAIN

For test [2], the target named is recombinant human CYP11B2 (Homo sapiens, UniProt P19099). Put plainly: CYP11B2 enzyme assay with enzyme enriched microsomes, aldosterone measured by LC-MS. The settings on record: read-out: hCYP11B2 IC50; microsomes from V79-4 cells; 11-deoxycorticosterone at Km. Here is the method:
as §1

Experimental findings from patent publication US12358893B2, “Metalloenzyme inhibitor compounds” (Corxel Pharmaceuticals Hong Kong Limited, priority 2019, dated 2025) are described below.

For the compound `N#Cc1ccc2nc(-n3cnc4ccncc43)n(C3CC3)c2n1`, the half-maximal inhibitory concentration (IC50) in test [1] lay in the range of 1 to 10 µM; in test [2] it was 0.001 to 0.1 µM.

In the case of `N#Cc1ccc2nc(-n3cnc4cnccc43)n(C3CC3)c2n1`, the IC50 in test [1] was greater than 10 µM; in test [2] it was 0.1 to 1 µM.
